The values below come from PubChem BioAssay (Tox21).

Chains of the proteins cited; added tags and fusions are not shown.
UniProt P34981, whole entry: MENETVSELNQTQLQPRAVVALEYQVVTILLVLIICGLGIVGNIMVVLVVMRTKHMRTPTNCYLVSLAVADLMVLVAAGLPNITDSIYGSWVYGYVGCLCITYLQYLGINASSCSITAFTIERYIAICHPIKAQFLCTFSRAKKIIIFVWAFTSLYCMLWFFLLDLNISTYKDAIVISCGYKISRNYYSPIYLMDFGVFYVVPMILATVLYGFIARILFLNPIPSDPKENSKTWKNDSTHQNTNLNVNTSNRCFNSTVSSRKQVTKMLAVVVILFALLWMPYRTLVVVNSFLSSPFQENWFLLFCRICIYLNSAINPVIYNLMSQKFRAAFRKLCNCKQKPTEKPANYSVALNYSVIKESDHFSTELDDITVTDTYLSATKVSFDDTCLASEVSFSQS
UniProt P33261, whole entry: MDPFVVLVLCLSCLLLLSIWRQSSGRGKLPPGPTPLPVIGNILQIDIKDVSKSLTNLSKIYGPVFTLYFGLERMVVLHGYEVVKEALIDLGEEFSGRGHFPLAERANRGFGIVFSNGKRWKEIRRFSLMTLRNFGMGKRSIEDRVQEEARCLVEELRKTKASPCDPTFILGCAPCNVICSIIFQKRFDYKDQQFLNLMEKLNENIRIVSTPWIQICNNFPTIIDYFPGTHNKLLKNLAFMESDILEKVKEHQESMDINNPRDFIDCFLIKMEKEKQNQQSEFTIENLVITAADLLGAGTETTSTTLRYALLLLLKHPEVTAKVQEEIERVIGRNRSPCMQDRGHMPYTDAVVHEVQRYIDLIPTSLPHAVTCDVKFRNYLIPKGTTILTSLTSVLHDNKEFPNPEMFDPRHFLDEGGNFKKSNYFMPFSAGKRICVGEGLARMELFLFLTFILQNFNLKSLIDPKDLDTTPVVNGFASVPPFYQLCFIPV
UniProt P11712, whole entry: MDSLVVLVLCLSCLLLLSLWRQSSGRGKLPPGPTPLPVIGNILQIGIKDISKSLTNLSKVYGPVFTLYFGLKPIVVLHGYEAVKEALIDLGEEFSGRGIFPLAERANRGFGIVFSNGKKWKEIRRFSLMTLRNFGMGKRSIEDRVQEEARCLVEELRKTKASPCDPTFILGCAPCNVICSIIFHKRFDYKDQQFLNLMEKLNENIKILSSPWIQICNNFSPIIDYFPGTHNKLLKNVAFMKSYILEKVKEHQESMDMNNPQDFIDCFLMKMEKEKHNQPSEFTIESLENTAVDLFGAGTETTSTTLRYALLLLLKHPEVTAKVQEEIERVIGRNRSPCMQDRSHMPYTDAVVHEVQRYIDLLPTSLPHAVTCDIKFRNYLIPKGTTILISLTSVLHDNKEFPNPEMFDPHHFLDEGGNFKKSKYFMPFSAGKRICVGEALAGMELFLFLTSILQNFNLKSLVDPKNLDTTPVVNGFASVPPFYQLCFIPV
UniProt P05177, whole entry: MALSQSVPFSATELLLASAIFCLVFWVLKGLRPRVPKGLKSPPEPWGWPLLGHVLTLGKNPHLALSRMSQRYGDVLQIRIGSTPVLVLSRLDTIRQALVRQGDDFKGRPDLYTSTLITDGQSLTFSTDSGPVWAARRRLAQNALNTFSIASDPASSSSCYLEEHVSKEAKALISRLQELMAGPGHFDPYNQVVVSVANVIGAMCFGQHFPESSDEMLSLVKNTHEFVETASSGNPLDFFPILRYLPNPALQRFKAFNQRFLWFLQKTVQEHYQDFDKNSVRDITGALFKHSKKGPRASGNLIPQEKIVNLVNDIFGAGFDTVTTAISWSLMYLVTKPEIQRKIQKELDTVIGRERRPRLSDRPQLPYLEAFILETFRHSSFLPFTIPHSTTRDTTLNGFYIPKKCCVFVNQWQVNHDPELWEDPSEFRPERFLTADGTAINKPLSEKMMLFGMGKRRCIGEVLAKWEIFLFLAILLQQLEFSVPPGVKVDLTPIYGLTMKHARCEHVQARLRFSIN
UniProt Q12809, whole entry: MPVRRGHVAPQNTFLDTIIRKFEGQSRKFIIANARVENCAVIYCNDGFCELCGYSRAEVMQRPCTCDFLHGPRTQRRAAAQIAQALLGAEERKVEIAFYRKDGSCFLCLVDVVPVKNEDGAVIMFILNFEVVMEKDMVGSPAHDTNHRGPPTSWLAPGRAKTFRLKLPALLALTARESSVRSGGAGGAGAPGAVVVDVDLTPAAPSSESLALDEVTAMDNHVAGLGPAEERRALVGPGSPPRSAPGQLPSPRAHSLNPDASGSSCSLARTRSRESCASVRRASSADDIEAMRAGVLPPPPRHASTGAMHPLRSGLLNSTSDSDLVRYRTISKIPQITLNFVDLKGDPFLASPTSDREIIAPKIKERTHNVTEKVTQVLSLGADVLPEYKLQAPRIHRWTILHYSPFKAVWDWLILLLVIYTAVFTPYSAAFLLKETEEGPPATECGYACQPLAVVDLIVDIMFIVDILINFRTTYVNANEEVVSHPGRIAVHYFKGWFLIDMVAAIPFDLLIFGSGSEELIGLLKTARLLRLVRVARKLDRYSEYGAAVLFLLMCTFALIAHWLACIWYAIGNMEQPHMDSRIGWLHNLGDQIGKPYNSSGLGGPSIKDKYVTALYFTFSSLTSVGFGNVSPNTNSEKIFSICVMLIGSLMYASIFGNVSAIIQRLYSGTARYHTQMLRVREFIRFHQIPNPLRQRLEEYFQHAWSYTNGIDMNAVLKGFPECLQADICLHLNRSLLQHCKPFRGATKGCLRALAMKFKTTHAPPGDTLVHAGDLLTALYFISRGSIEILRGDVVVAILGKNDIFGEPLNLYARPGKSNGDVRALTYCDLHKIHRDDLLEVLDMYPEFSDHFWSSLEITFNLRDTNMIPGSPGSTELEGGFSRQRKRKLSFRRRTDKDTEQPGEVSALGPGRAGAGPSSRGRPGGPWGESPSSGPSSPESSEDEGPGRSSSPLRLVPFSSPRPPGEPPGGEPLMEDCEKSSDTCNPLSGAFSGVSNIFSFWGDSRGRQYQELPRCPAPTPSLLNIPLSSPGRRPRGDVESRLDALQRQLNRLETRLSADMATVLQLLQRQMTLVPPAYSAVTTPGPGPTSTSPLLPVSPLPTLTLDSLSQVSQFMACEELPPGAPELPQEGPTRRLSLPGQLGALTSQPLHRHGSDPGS
UniProt P08684, whole entry: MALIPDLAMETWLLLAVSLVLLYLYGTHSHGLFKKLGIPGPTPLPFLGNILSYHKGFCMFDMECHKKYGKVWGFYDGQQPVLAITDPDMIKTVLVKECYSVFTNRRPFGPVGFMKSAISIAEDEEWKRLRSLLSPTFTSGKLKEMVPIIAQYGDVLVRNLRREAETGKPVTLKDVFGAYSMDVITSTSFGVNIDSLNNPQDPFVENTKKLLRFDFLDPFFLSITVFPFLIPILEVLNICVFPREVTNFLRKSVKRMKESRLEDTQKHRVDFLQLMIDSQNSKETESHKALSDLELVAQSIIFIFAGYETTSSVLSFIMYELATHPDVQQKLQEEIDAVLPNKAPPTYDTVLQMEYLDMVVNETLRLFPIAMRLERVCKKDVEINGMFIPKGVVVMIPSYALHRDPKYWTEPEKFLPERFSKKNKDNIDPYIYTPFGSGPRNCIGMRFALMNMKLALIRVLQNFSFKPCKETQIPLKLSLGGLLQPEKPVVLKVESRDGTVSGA
UniProt O75469, whole entry: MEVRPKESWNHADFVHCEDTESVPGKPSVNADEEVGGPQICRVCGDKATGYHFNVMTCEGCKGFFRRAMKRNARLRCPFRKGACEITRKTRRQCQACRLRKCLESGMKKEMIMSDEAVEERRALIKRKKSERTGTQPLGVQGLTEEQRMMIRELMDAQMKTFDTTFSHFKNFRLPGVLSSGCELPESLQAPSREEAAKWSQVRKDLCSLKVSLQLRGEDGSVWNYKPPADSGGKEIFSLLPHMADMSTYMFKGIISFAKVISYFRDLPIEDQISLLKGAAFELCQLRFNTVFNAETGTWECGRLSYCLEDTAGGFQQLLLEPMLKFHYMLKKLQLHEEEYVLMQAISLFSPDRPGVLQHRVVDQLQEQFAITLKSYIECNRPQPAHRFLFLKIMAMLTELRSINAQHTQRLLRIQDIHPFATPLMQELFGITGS

The structures appear in SMILES notation. Several values for one entry are separate records, joined by “and”; a condition that tells them apart may be missing. Identical values can stand only once. Only a part is listed here, and it is no random draw. Inconclusive results are not listed. Activity calls are given as the source filed them. Unless noted, the call rests on the fitted dose curve; in most records, active means well fitted curve in the direction sought with a large enough effect in the repeat runs; inconclusive means weak or mixed curves; inactive means no such curve, though single readings can be large; an effect the other way counts as inactive or inconclusive.

Test [1] is described as follows: qHTS assay to identify small molecule antagonists of the TGF-beta/Smad signaling pathway - cell viability counter screen (AID 1346824). Further: nearly all actives have a fitted effect of over 50% in size. The settings on record: SBE-bla HEK293T viability, CellTiter-Glo luminescence; at 76.8 µM (top of the series) unless noted. The essentials:
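SBE-bla HEK 293T cells, incubated overnight, then compound plus 0.25 ng/mL TGF-beta1 (stock added) for 5 hr at 37 C. Viability was read in the same wells by CellTiter-Glo luminescence after 30 min at room temperature.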
In general terms: qHTS replaces the single test concentration by a dilution series.

The nature of test [2]: qHTS assay to identify small molecule agonists of the TGF-beta/Smad signaling pathway - cell viability counter screen (AID 1346829). Further: top concentration of the series differs between compounds; nearly all actives have a fitted effect of over 45% in size. As to conditions: SBE-bla HEK293T viability, CellTiter-Glo luminescence, 5 h; at 76.8 µM (top of the series) unless noted. The essentials: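 Compound-treated SBE-bla HEK 293T cells (5 hr, 37 C) were assessed for viability with CellTiter-Glo in parallel with the reporter read.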

Test [3] can be described thus: qHTS assay to identify small molecule agonists of the TGF-beta/Smad signaling pathway (AID 1346859; active means well fitted activation curve with a large enough effect in the signal ratio in the repeat runs, not every such curve was filed as active; the % refers to the signal ratio). The settings on record: SBE-bla HEK293T, TGF-beta/Smad beta-lactamase reporter, 5 h; at 76.8 µM (top of the series) unless noted. The essentials: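 HEK 293T cells stably carrying a beta-lactamase reporter driven by the Smad binding element were seeded overnight, exposed to DMSO-dissolved compounds for 5 hr at 37 C, 5% CO2, then loaded with FRET substrate for 2 hr at room temperature.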

The target of test [4] is Thyrotropin-releasing hormone receptor (Homo sapiens) (UniProt P34981). Nature of the test: qHTS assay to identify small molecule antagonists of the thyrotropin-releasing hormone receptor (TRHR) signaling pathway (AID 1346877; active means well fitted inhibition curve with a large enough effect in the repeat runs, not every such curve was filed as active).
Test [5] shares this target. Nature of the test: qHTS assay to identify small molecule agonists of the thyrotropin-releasing hormone receptor (TRHR) signaling pathway (AID 1346891; calls by dose curve;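 further: HEK293 cells expressing TRHR with calcium dye readout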). As to conditions: TRHR-HEK293 calcium fluorescence, agonist mode.
Test [6] can be described thus: Caspase-3/7 induction in HepG2 cells by small molecules, qHTS assay (AID 1346978). Further: nearly all actives have a fitted effect of over 15% in size. As to conditions: HepG2 caspase-3/7 activation, Caspase-Glo luminescence, 17 h; at 92.4 µM (top of the series) unless noted. The essentials:
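Wild-type HepG2 cells, 2,000/well, settled 5 hr at 37 C and 5% CO2, then compound-treated for 17 hr; caspase-3/7 activity read by luminescent Caspase-Glo 3/7 after 30 min at room temperature.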

Test [7] in a line: Caspase-3/7 induction in HepG2 cells by small molecules, qHTS cell viability counter screen (AID 1346981). Further: nearly all actives have a fitted effect of over 30% in size. As to conditions: CellTiter-Fluor fluorescence, 17 h, at 92.4 µM (top of the series). The essentials:
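Cell viability is measured as a cytotoxicity counter screen alongside the Caspase-Glo 3/7 readout in identical wells. Wild-type HepG2 cells are treated with test compounds for 16 hr at 37 C before CellTiter-Fluor addition and a 1-hr incubation.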

The target of test [8] is Cytochrome P450 2C19 (Homo sapiens) (UniProt P33261). Nature of the test: Cytochrome P450 Family 2 Subfamily C Member 19 (CYP2C19) small molecule antagonists: luciferase reporter qHTS assay (AID 1671197). Further: nearly all actives have a fitted effect of over 65% in size. Further: potency means the concentration at half of the fitted maximal effect. The essentials:
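P450-Glo CYP2C19 screening system; proluciferin substrate; DMSO compound stocks; 10 min RT preincubation; NADPH regeneration, 1 h at 37C; luciferin detection reagent, 20 min RT; luminescence as RLU.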
On the technique in general: In a reporter assay the amount or activity of a reporter protein is the signal.

In test [9] the target is Cytochrome P450 2C9 (Homo sapiens) (UniProt P11712). The test can be described thus: Cytochrome P450 Family 2 Subfamily C Member 9 (CYP2C9) small molecule antagonists: luciferase reporter qHTS assay (AID 1671198). Further: nearly all actives have a fitted effect of over 50% in size. Further: potency means the concentration at half of the fitted maximal effect. The essentials:
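P450-Glo proluciferin substrate with CYP2C9 enzyme; 10 min RT preincubation, then NADPH regeneration 1 h at 37C; luciferin detection reagent 20 min RT, luminescence in relative luminescence units.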

The target of test [10] is Cytochrome P450 1A2 (Homo sapiens) (UniProt P05177). The test can be described thus: Cytochrome P450 Family 1 Subfamily A Member 2 (CYP1A2) small molecule antagonists: luciferase reporter qHTS assay (AID 1671199). Further: nearly all actives have a fitted effect of over 50% in size. Further: potency means the concentration at half of the fitted maximal effect.
In test [11] the target is Voltage-gated inwardly rectifying potassium channel KCNH2 (Homo sapiens) (UniProt Q12809). The test can be described thus: Human Ether-a-go-go-Related Gene (hERG) channel small molecule antagonists: fluorescence cell-based qHTS assay (AID 1671200).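 Further: hERG-expressing U2OS cells given a thallium stimulus after FluxOR II dye loading; nearly all actives have a fitted effect of over 50% in size.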 The essentials: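 U2OS cells expressing the channel were plated at 1000 cells/well, incubated overnight at 37 C, then loaded with FluxOR II thallium-sensitive dye for 1 h at room temperature in the dark, with a further 10 min at room temperature before stimulation.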
A general note: Block of hERG is tested as a sign of cardiac risk.

The target of test [12] is Cytochrome P450 3A4 (Homo sapiens) (UniProt P08684). Nature of the test: Cytochrome P450 Family 3 Subfamily A Member 4 (CYP3A4) small molecule antagonists: luciferase reporter qHTS assay (AID 1671201). Further: nearly all actives have a fitted effect of over 50% in size. The essentials: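 P450-Glo CYP3A4 system with proluciferin substrate; compounds preincubated 10 min RT with enzyme-substrate mix, then NADPH regeneration added for 1 h RT. Detection reagent 20 min, luminescence read as relative luminescence units.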

Test [13] deals with Nuclear receptor subfamily 1 group I member 2 (Homo sapiens) (UniProt O75469). Nature of the test: Human pregnane X receptor (PXR) small molecule agonists, qHTS assay (AID 1346982). Further: nearly all actives have a fitted effect of over 35% in size. The essentials: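 Cells: HepG2 stably carrying PXR-Luc. Medium held 5% charcoal-stripped FBS. Compounds in DMSO added after 5 hr plating, incubated 24 hr, then luminescence quantified with ONE-Glo.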

Test [14] is described as follows: Human pregnane X receptor (PXR) small molecule agonists, qHTS cell viability counter screen (AID 1346977). Further: nearly all actives have a fitted effect of over 50% in size. The essentials:
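PXR-Luc HepG2 cells in medium with 5% charcoal-stripped FBS were pre-incubated 5hr, then exposed to compounds for 24hr at 37C. Viability was read in the same wells by CellTiter-Fluor fluorescence, reagent added after 23hr with a 1hr incubation.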
On the % scale 0 is the no-effect control and ±100 the full control effect.

Take `O=[N+]([O-])OCC(CO[N+](=O)[O-])(CO[N+](=O)[O-])CO[N+](=O)[O-]`: the viability change, negative = cytotoxic in [1] is inactive: -0.454%. Also, the activity change, negative = cytotoxicity in test [2] was inactive: -0.485%; in [7], inactive: -1.43%. Further, the activation in test [3] was inactive: 3.31%; in test [5] (at 57.6 µM (top of the series)), inactive: -0.172%. The Potency result in [4], in test [8], in test [9], in [11] and in test [12] was “inactive” in each case. For the same compound, in test [6], the caspase activation was inactive: -0.466%. Besides, in test [10], the Potency was active: 35.6 µM.
For the compound `Nc1cc([N+](=O)[O-])cc([N+](=O)[O-])c1O`, in test [1], the viability change, negative = cytotoxic was inactive: -17.6%. In test [2], the activity change, negative = cytotoxicity was inactive: -23.7%. Besides, the activation was inactive: -10.8% in test [3] and inactive: 3.03% in test [5] (at 57.6 µM (top of the series)). Moreover, the Potency result in [4], in test [13], in test [10] and in test [11] was “inactive” each time. In addition, in test [6], the caspase activation is inactive: -7.37%. Moreover, the Potency in test [8] was active: 40.8 µM; in test [9] it was active: 8.15 µM.
Regarding `CCN(CC)CCCl`, the viability change, negative = cytotoxic in test [1] is inactive: 4.76%. In addition, the results for the activity change, negative = cytotoxicity in test [2] and in [7] were inactive: -2.09% and inactive: -1.23%, respectively. The activation was inactive: -4.09% in test [3] and inactive: 0.0832% in test [5] (at 57.6 µM (top of the series)). For the same compound, the Potency entry in test [4], in test [14], in [8], in test [9], in [10] and in [11] was “inactive” in each case. Moreover, in [12], the Potency result was “inactive”. For the same compound, the caspase activation in test [6] is inactive: -0.331%.
Regarding `O=[N+]([O-])[O-].[NH4+]`, in test [1], the viability change, negative = cytotoxic is inactive: -5.12% and inactive: 11.3%. For the same compound, the activity change, negative = cytotoxicity was inactive: -8.67% and inactive: -4.74% in test [2]; inactive: 4.01% and inactive: 4.31% in test [7]. In test [3], the activation was inactive: 1.35% and inactive: 0.9%. Besides, the Potency entry in test [14], in test [13], in test [9], in test [11] and in test [12] was “inactive” each time. Also, the caspase activation in test [6] is inactive: -0.371% and inactive: -0.35%.
`CCOP(=O)(CC)Oc1ccc([N+](=O)[O-])cc1` (stereo not drawn): the viability change, negative = cytotoxic in test [1] is inactive: -24.6% [at 35.3 µM]. The activity change, negative = cytotoxicity in [2] was inactive: -31.2% [at 35.3 µM]. Also, the values for the activation in [3] and in test [5] (at 26.5 µM (top of the series)) were inactive: 10.4% [at 35.3 µM] and inactive: -0.0042%, respectively. The Potency result in test [4], in test [14], in [13], in test [9], in test [10] and in [11] was “inactive” each time. For the same compound, in test [12], the Potency entry was “inactive”. Besides, the caspase activation in [6] was inactive: -1.87% [at 42.5 µM]. Moreover, the Potency in test [8] was active: 3.47 µM.
For the compound `Cc1c([N+](=O)[O-])cccc1[N+](=O)[O-]`, the viability change, negative = cytotoxic in test [1] is inactive: -3.49% and inactive: 11.9%. The activity change, negative = cytotoxicity in test [2] is inactive: 3.62% and inactive: 9%; in test [7], inactive: 0.285% and inactive: 6.81%. Besides, the activation in [3] is inactive: 5.64% and inactive: 1%; in test [5] (at 57.6 µM (top of the series)), inactive: -0.719% and inactive: -0.443%. For the same compound, the Potency entry in test [4], in test [14], in [13], in test [8], in test [9] and in test [11] was “inactive” throughout. Further, the Potency entry in [12] was “inactive”. For the same compound, the caspase activation in test [6] was inactive: 0.276% and inactive: -0.0184%. Besides, in [10], the Potency is active: 19.7 µM and active: 20 µM.
